Laboratory results from patent US20160143995A1, “Method of Treating Intracellular Infection” (priority 2013, published 2016).

Tests used:
HBV = test: Treatment of HBV infected mice (serum HBV DNA); type: in vivo, hepatitis B virus

With `CC[C@H](NC(=O)[C@H](C)NC)C(=O)N1C[C@@H](O)C[C@H]1Cc1c(-c2[nH]c3cc(F)ccc3c2C[C@@H]2C[C@H](O)CN2C(=O)[C@H](CC)NC(=O)[C@H](C)NC)[nH]c2cc(F)ccc12` [Birinapant, birinapant] the “Antiviral Index (TC50/IC50)” value (HIV-1JR-CSF) was 26.1, the “earliest HBV clearance after the first treatment dose” value (HBV; C57BL/6 mice, 30 mg/kg intraperitoneally weekly) was 10 days and the “efficacy of 3 doses versus 6 doses in promoting HBV clearance” value (HBV; HBV infected mice) was “equivalent efficacy”.
